The test system of this experiment is MCF7. Nature of the experiment: Antiproliferative activity against human MCF7 cells assessed as inhibition of cell growth measured after 6 days by cell titre glo luminescence assay. As to conditions: MCF7, 144 h.

Usually IC50 stands for the concentration that inhibits the measured activity by half.

On to `COc1cc(Oc2c(-c3ccc(F)cc3C(C)(F)F)sc3c2ccc2[nH]ncc23)ccc1NC1CN(CCCF)C1`, for which the half-inhibitory concentration (IC50) stood at 0.6 nM.

In the case of `CC(C)(F)c1cc(F)ccc1-c1sc2c(ccc3[nH]ncc32)c1Oc1ccc(NC2CN(CCCF)C2)cc1`, the IC50 is 1 nM.

Turning to `COc1cc(Oc2c(-c3ccc(F)cc3C(C)(C)F)sc3c2ccc2[nH]ncc23)ccc1NC1CN(CCCF)C1`, the IC50 stood at 0.7 nM.

The record behind these values is ChEMBL document CHEMBL5154828 (J Med Chem, 2022).
